The text below walks through data of US20180008518A1, “MINERALIZATION FLUORIDE COMPOSITIONS” (published 2018).

A short description of this series: Saliva post rinse calcium, inorganic phosphate, fluoride and monofluorophosphate contents.

Consider calcium monofluorophosphate, for which the “Fate of the fluoride species in the oral cavity” value is recorded as “remained as monofluorophosphate”.
